Test results published in ChEMBL document CHEMBL1687941 (J Med Chem, 2011).

Target: T1, Aminopeptidase N (Plasmodium falciparum FcB1/Columbia) (UniProt O96935)
T1 sequence (whole entry): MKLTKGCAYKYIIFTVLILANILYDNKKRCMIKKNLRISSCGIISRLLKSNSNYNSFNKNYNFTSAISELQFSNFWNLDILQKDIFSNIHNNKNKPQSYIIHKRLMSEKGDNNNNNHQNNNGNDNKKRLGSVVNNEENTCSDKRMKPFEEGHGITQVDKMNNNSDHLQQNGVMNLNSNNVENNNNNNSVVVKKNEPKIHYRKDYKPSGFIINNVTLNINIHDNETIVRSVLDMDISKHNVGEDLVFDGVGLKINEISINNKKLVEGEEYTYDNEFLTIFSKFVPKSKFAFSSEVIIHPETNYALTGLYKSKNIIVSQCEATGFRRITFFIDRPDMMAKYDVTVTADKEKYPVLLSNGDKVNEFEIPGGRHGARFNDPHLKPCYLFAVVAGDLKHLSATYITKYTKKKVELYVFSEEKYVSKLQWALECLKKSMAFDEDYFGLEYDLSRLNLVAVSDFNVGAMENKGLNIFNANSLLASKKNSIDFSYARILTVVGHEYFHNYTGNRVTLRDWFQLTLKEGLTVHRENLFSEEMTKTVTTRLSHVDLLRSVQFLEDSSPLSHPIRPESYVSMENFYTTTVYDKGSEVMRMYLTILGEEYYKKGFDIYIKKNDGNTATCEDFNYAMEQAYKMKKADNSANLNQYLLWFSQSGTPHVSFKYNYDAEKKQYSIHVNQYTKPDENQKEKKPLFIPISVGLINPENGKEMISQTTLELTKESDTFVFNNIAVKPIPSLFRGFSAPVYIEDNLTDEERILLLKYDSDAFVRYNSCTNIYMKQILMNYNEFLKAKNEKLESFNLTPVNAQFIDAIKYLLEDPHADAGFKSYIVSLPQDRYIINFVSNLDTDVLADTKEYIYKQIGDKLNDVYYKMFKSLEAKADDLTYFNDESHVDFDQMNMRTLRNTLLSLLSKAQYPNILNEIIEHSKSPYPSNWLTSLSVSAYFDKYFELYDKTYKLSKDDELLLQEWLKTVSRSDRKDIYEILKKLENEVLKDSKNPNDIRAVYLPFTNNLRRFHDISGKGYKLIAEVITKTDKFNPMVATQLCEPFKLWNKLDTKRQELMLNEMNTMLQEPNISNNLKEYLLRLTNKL
Test: Ratio of Ki for bestastin to compound for Plasmodium falciparum M1-aminopeptidase

Question: For CC(C)C[C@H](NC(=O)[C@@H](O)[C@H](N)Cc1ccc(OCc2ccccc2)cc1)C(=O)O, which Ratio Ki is on record?
Answer: Its Ratio Ki is 5.

Question: With COc1ccc(C[C@@H](N)[C@H](O)C(=O)N[C@@H](CC(C)C)C(=O)O)cc1 as the compound, how does the Ratio Ki read?
Answer: Its Ratio Ki is 5.
